## AlphaSeq binding of Ab-14 light chain variants to a spike HR2 peptide

All variants were tested on one target, the spike HR2 peptide PDVDLGDISGINAS (SARS-CoV-2).

The variants keep the heavy chain, the linker and the frameworks of Ab-14 (scFv order VH, a 15-residue (Gly4Ser)3 linker, VL).
VH: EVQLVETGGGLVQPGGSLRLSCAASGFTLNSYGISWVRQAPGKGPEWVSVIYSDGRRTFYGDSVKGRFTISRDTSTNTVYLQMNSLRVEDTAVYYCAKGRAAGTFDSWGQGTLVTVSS
VL: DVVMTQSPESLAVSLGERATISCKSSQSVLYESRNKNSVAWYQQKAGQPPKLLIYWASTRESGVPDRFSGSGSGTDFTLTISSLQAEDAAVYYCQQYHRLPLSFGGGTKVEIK

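The parent was found by panning a naive human phage display library on the peptide. In library AAYL50, one, two or three CDR residues were substituted; doubles and triples were drawn at random. The assay is AlphaSeq: two haploid yeast populations carry antibody and antigen on their surface. After mating in shaken culture at 30 °C for 16 h, diploids were selected and their barcode pairs sequenced. A regression on co-assayed BCL2-family reference pairs converts the normalised counts of each replicate to an apparent Kd. Mating was done three times.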

Positions count from residue 1 of the parent VL; Q27L puts L in place of Q.
The Kd shown is the geometric mean over detected replicates; a lower Kd is a better binder.
An entry "not detected" has no value in the source: the pair was not observed among the diploids in any replicate. This suggests poor binding but is not conclusive.
Nonspecific signal, from three strains lacking the peptide, appeared in 18% of pairings of library AAYL50, centred on 15 µM (5% of these signals below 970 nM); values are not corrected for it. For each scFv, signals with the empty controls are counted beside the result.

changes	Kd (apparent)	replicates with signal	empty controls
Q27L+S33H+N35H	100 nM	3 of 3	5 of 9
Q95T+Y97Q+P101V	not detected	0 of 3	0 of 9
S58A+P101G	not detected	0 of 3	0 of 9
H98Q+L100S	100 µM	2 of 3	5 of 9
K36M+Y97R+H98D	5.0 nM	3 of 3	1 of 9
Q27Y+S28P+S103M	180 nM	2 of 3	0 of 9
S26G+S58W+Y97S	19 µM	1 of 3	4 of 9
E32T+S33F+N35S	450 nM	3 of 3	2 of 9
S28I+V39Y+Q96L	270 µM	3 of 3	5 of 9
K24A+S25F+E32A	3.9 nM	3 of 3	2 of 9
S33M+W56Q+R60A	50 nM	3 of 3	1 of 9
L30N+Q95R+Y97T	not detected	0 of 3	4 of 9
V29R+N37P+L102W	not detected	0 of 3	0 of 9
Q27G+V29A+N35W	50 µM	1 of 3	4 of 9
R34S+K36P+N37K	9.3 µM	1 of 3	0 of 9
T59M+E61Q+Y97K	3.5 µM	1 of 3	2 of 9
S25M+S38M+L100G	130 nM	3 of 3	1 of 9
V39C+R60H+Q96P	not detected	0 of 3	1 of 9
S25G+W56N+R99Y	1.6 nM	3 of 3	4 of 9
Q27N+A57T+Q96H	39 nM	3 of 3	2 of 9
R34Q+W56M+Q96R	150 µM	1 of 3	1 of 9
R34Q+A40D+L102N	1.2 µM	1 of 3	1 of 9
S62Y+Q95I+Q96A	3.0 µM	1 of 3	0 of 9
N35T+K36A	11 nM	3 of 3	0 of 9
Q27D+S58P+R60S	11 µM	1 of 3	3 of 9
S38G+V39R+Q95H	not detected	0 of 3	1 of 9
K24F+L30Q	10 nM	3 of 3	0 of 9
S25E+N35F+V39Q	33 µM	2 of 3	3 of 9
S25G+V29M+Y31M	3.9 nM	3 of 3	5 of 9
L30E+E32V+Y97Q	not detected	0 of 3	0 of 9
S58P+L100K	not detected	0 of 3	0 of 9
V29P+S62K+R99E	79 nM	3 of 3	3 of 9
L30Q+N35W+Q96P	140 nM	3 of 3	4 of 9
S33P+N35W+Q96E	4.7 µM	2 of 3	1 of 9
R60E+L100N+L102F	69 µM	3 of 3	4 of 9
K24I+R34I+S58G	40 nM	3 of 3	5 of 9
Q27K+A40W+S58F	440 µM	2 of 3	7 of 9
S25E+Y31W+S33F	170 nM	3 of 3	0 of 9
S28M+S38K+R99W	98 nM	3 of 3	3 of 9
S33F+K36V+S58P	not detected	0 of 3	3 of 9
A40P+S62P+P101K	not detected	0 of 3	4 of 9
S38R+A57Q+R99S	not detected	0 of 3	0 of 9
Y31D+E61K	80 nM	3 of 3	3 of 9
S25N+R99K+L100P	not detected	0 of 3	0 of 9
A40H+S62F+Y97G	not detected	0 of 3	2 of 9
S38L+Q96E+Y97V	350 µM	2 of 3	2 of 9
K24F+R34P+Y97H	360 nM	3 of 3	0 of 9
S25D+S103K	not detected	0 of 3	0 of 9
S25F+A40I	9.1 µM	2 of 3	1 of 9
R34L+V39Q+Q96S	5.4 µM	1 of 3	2 of 9
R34N+T59D+L102D	not detected	0 of 3	0 of 9
Y31S+Q96F	440 nM	3 of 3	7 of 9
K24H+T59I+L102S	not detected	0 of 3	0 of 9
Q27W+V39E+R60H	not detected	0 of 3	0 of 9
K24H+V39N+R60P	not detected	0 of 3	1 of 9
K36H+A57N+S62L	38 µM	1 of 3	4 of 9
S28K+R34F+S58I	560 nM	3 of 3	1 of 9
Q27K+S58K+R99P	not detected	0 of 3	1 of 9
S28G+A57D+Q95W	140 µM	3 of 3	4 of 9
Q27S+A40F+A57T	not detected	0 of 3	0 of 9
N37R+V39K+W56R	540 µM	3 of 3	2 of 9
S26N+A57F+P101Y	110 µM	1 of 3	2 of 9
S26T+E32N	20 nM	3 of 3	0 of 9
Y31K+W56H+L102E	1.7 µM	2 of 3	0 of 9
K24E+S26P+Q95S	380 nM	3 of 3	2 of 9
S25V+V29A+S103V	1.8 nM	3 of 3	2 of 9
S33G+T59E+Q95E	77 nM	3 of 3	2 of 9
T59F+Q96S+Y97A	not detected	0 of 3	3 of 9
Q27R+S33N+S58P	1.7 µM	1 of 3	2 of 9
S28D+S58A+P101H	not detected	0 of 3	0 of 9
L30M+L102V	18 nM	3 of 3	4 of 9
Y31K+S38Y	not detected	0 of 3	0 of 9
T59W+E61Q+L102E	not detected	0 of 3	0 of 9
S25K+Q96S+L102R	not detected	0 of 3	1 of 9
K24W+R34W+N37D	6.0 µM	3 of 3	4 of 9
Y31M+R60K+P101E	28 nM	3 of 3	2 of 9

For reference, 8 entries of the list once more:

{"changes": "L30Q+N35W+Q96P", "Kd (apparent)": "140 nM", "replicates with signal": "3 of 3", "empty controls": "4 of 9"}
{"changes": "V39C+R60H+Q96P", "Kd (apparent)": "not detected", "replicates with signal": "0 of 3", "empty controls": "1 of 9"}
{"changes": "K24H+V39N+R60P", "Kd (apparent)": "not detected", "replicates with signal": "0 of 3", "empty controls": "1 of 9"}
{"changes": "S33F+K36V+S58P", "Kd (apparent)": "not detected", "replicates with signal": "0 of 3", "empty controls": "3 of 9"}
{"changes": "S25M+S38M+L100G", "Kd (apparent)": "130 nM", "replicates with signal": "3 of 3", "empty controls": "1 of 9"}
{"changes": "N37R+V39K+W56R", "Kd (apparent)": "540 µM", "replicates with signal": "3 of 3", "empty controls": "2 of 9"}
{"changes": "K24A+S25F+E32A", "Kd (apparent)": "3.9 nM", "replicates with signal": "3 of 3", "empty controls": "2 of 9"}
{"changes": "R34L+V39Q+Q96S", "Kd (apparent)": "5.4 µM", "replicates with signal": "1 of 3", "empty controls": "2 of 9"}

Parent in this assay: reference entry 4.4 nM, copy in this library 48 nM.

From the AlphaSeq antibody data of Engelhart et al. 2022 (doi:10.1038/s41597-022-01779-4), copy in the FLAb collection.